Structures can show the parent of a compound that is named as a salt. Marks after values point to notes of the source that are not given here.

This note sets out measurements from US20130323314A1, “Novel Nanoparticles of Lactoferrin Useful for Preparing a Pharmaceutical Composition Facilitating Easy Delivery of the Drug and a Process for Preparing the Same” (UNIVERSITY OF HYDERABAD, priority 2011, published 2013).

This data set is described as follows: Pharmacokinetics and tissue distribution after intravenous administration. The conditions noted are these: Liver, rat.

`COc1cccc2c1C(=O)c1c(O)c3c(c(O)c1C2=O)C[C@@](O)(C(=O)CO)C[C@@H]3O[C@H]1C[C@H](N)[C@H](O)[C@H](C)O1` [Doxo, Doxorubicin hydrochloride]: the AUC is on record as 713.776 (h) * (μg/g).
